Values quoted from earlier work in patent US20100092389A1 (The General Hospital Corporation, priority 2008, published 2010).

Conditions: cited from earlier work

Compound: CC1(C)C(/C=C/C=C/C=C/C=C2\N(CCCCS(=O)(=O)O)c3ccc4ccccc4c3C2(C)C)=[N+](CCCCS(=O)(=O)[O-])c2ccc3ccccc3c21 [ICG, Indocyanine green]
- solubility in water: 1000 µg/mL (≈ 1330 µM)

≈ marks a conversion by molar mass, not a printed value.
